Binding of CDR-mutated scFvs to a peptide of the spike HR2 region

Binding partner: SARS-CoV-2 spike HR2 peptide, sequence PDVDLGDISGINAS.

Parent scFv Ab-14: VH joined to VL by a 15-residue (Gly4Ser)3 linker. Changes lie in the heavy chain CDRs alone.
VH: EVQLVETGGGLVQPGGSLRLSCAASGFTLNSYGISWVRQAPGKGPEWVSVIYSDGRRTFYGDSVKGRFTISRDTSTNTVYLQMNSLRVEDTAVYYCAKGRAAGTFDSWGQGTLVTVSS
VL: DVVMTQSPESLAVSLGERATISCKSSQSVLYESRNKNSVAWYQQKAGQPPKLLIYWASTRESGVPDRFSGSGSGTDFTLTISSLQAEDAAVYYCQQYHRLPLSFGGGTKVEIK

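The parent was found by panning a naive human phage display library on the peptide. Library AAYL49 holds single substitutions and randomly drawn double and triple substitutions in the CDRs. Affinity was read by AlphaSeq, a pooled yeast mating assay with surface-displayed partners. Binding brings cells together so that they mate, and sequencing counts the barcode pairs among the diploids. Scores were corrected for input abundance and mapped to Kd with protein pairs of known affinity run in the same pool. There are three technical replicates.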

Changes read parent residue, position, new residue, counted from the first residue of the VH shown.
Every variant below is changed at R57 of the VH (sequential numbering).
Values are log10 of the apparent Kd in nM; lower means stronger binding.
Averages over replicates are reported, and they cover detected replicates only.
An entry "nd" has no value in the source: the pair was not observed among the diploids in any replicate. This suggests poor binding but is not conclusive.
For reference, the parent read 0.65 as the reference entry and 4.11 (one replicate of three) as a member of this library.

changes	log10 Kd (nM), mean	seen in
R57F+D62S+S107T	4.03	1/3
R57A+Y60D+S107E	nd	0/3
R56K+R57T+A101R	2.23	2/3
R57C+V64L	nd	0/3
S31Y+Y32W+R57V	nd	0/3
G26E+R57L+K65A	4.88	3/3
R57T+F59V+D62M	nd	0/3
L29A+R57T+D62M	nd	0/3
R57A+A101K+G103T	4.15	1/3
G55S+R57W+S107C	4.07	2/3
S53V+R57L+K65R	2.45	1/3
S53C+R57P+A101P	nd	0/3
R57S+F59E+K65Y	4.48	1/3
I34K+R57M+F59M	4.31	2/3
R57I	3.60	2/3
D54S+R56Y+R57C	nd	0/3
R57M+S63G+V64A	3.98	1/3
Y32A+S35I+R57V	4.35	2/3
I51L+R57M+G61W	nd	0/3
V50G+D54N+R57N	nd	0/3
G26L+R57T+F105H	4.92	2/3
R57C+F59C+S107N	nd	0/3
S35R+R57K+V64K	4.70	1/3
T28N+R57P+V64F	nd	0/3
L29S+R57M+G103M	nd	0/3
R57Y+G61S+K65A	4.52	1/3
R57S	nd	0/3
G26L+R57E+D106I	nd	0/3
R57S+R100N	2.17	2/3
Y32T+R57P+G61V	nd	0/3
G33W+R57S+V64P	nd	0/3
S31R+I34N+R57M	nd	0/3
V50H+R57C	nd	0/3
Y32M+S35G+R57D	5.15	1/3
S53T+R57E	3.98	1/3
D54L+R56C+R57N	nd	0/3
S31L+S35Q+R57E	nd	0/3
R57A+V64L+D106P	4.06	2/3
V50A+R57M	nd	0/3
S35G+R57W+A101H	4.71	1/3
F27Q+R57E+A102P	4.84	1/3
G55C+R57I+S107N	nd	0/3
F27P+R57Y	4.53	1/3
R57A+F59T+S107R	nd	0/3
R57Q+G61E+G103T	nd	0/3
R57C+F59P+G103N	3.42	1/3
S35W+D54I+R57K	nd	0/3

Background: pairings of library AAYL49 with three empty control strains gave a value in 15% of cases (median 4.06, 5th percentile 2.83). Values in that range, when seen in few replicates, are hard to tell from nonspecific mating.

From the AlphaSeq antibody data of Engelhart et al. 2022 (doi:10.1038/s41597-022-01779-4), copy in the FLAb collection.